Results taken from patent US8921515B2, “Methods and compositions of preparation for proteome analysis” (Case Western Reserve University, priority 2011, dated 2014).

System: OS membrane protein pellet
Test: Protein solubilization efficiencies of solubilizing agents (DC protein assay of supernatant)
Protocol: Bovine retinas obtained from WL Lawson Company (Omaha, Nebr.) were used to prepare the photoreceptor outer segment (OS) by sucrose density ultracentrifugation. All solvents used for bovine OS preparations contained protease inhibitors (1 mM EDTA, 0.2 mM PMSF, 0.7 μg/μL leupeptin, and 0.5 μg/μL pepstatin A) to inhibit protein degradation and 100 μM diethylenetriamine pentaacetic acid (DTPA) to inhibit oxidation.
The solubilized pellet solution was sonicated with a VirSonic 100 ultrasonic cell disrupter (SP Scientific, Gardiner, N.Y.) three times at 4.5 kHz of ultrasonic frequency for 9 seconds with 3-minute intervals between the sonications. The resulting protein extract was centrifuged at 15,000 g for 10 minutes, and the solubilized proteins in the supernatant were quantified using a DC protein assay kit (Bio-Rad, Hercules, Calif.).

In the case of ammonium bicarbonate [ABC], the Protein amount solubilized (OS membrane pellet in 100 mM ABC with agent at the concentration printed in the row (25 mM SDS 0.8% w/v, 25 mM PFOA 1% w/v, 4M urea, 4M Gdn-HCl), mean ± SD, triplicate) is reported as 9.2 ± 2.0 μg/10μ OS membrane preparation and the “protein solubilized from OS membrane protein pellet” value (text: 100 mM ABC, 1% PFOA, 1% SDS, urea, Gdn-HCl) is reported as 9.2 µg.
